Literature values in US20110082867A1, “SYSTEM, METHOD, AND COMPUTER PROGRAM PRODUCT FOR ANALYZING DRUG INTERACTIONS” (priority 2009, published 2011).

Protein sequences, listed by entry. Tags and fused reporters are not part of them.
UniProt P10632, whole entry: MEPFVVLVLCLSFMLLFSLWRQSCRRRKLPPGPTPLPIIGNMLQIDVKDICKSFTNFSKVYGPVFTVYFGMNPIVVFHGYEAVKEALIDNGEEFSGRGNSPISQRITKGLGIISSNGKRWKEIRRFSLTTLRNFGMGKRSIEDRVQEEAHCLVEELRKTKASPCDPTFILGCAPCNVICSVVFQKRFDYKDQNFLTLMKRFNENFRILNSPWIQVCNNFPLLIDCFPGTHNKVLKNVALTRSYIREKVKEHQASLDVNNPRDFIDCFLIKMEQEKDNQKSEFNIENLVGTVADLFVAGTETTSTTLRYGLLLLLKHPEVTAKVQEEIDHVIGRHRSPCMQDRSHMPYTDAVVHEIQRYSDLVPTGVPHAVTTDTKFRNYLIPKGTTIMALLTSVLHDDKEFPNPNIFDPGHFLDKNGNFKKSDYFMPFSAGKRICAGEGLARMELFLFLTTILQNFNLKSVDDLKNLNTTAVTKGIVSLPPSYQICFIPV
UniProt P11712, whole entry: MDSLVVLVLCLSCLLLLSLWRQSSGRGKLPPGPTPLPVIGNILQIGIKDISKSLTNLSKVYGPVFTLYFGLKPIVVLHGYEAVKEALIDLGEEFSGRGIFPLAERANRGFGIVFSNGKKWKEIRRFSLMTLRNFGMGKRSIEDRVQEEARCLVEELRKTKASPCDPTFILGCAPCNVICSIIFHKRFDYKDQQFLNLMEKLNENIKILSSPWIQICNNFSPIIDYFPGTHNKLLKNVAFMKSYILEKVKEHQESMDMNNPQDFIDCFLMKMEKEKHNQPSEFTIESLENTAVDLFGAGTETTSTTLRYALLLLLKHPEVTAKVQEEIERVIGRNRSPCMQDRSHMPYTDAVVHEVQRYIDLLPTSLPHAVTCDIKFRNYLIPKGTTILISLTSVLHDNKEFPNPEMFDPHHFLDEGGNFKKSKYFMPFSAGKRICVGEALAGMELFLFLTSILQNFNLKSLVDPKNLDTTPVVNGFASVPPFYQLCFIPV

Tests used:
CYP 2C8 = CYP 2C8 (Homo sapiens, UniProt P10632); conditions: Gene CYP 2C8; involvement strength and type
CYP 2C9 = CYP 2C9 (Homo sapiens, UniProt P11712); conditions: Gene CYP 2C9; involvement strength and type

For `CN(CCOc1ccc(CC2SC(=O)NC2=O)cc1)c1ccccn1` (centres unmarked) [Rosiglitazone], the “Drug Interaction” value (CYP 2C8) is listed as “Major Substrate” and the “Drug Interaction” value (CYP 2C9) is listed as “Major Substrate”.
